Data from paper PMC6429507, “Triterpene-Based Carboxamides Act as Good Inhibitors of Butyrylcholinesterase” (Molecules, 2019).

Chains of the proteins cited; added tags and fusions are not shown. Residues count along the entry.
UniProt P81908, whole entry: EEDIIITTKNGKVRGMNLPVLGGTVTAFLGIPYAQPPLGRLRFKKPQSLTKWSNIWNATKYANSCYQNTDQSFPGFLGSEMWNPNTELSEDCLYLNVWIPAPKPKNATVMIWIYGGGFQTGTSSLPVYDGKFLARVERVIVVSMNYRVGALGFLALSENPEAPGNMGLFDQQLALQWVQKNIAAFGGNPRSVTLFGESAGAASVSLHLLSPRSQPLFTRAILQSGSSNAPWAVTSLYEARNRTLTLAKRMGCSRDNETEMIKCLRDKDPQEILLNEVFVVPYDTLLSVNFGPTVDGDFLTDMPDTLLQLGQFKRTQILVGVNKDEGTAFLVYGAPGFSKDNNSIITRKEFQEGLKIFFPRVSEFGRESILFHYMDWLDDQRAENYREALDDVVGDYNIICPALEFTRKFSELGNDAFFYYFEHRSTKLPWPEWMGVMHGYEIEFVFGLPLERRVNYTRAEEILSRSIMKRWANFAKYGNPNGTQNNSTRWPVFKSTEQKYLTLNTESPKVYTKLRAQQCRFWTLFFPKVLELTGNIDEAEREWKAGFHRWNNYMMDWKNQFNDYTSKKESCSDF
UniProt O42275, 24-633 limits assumed: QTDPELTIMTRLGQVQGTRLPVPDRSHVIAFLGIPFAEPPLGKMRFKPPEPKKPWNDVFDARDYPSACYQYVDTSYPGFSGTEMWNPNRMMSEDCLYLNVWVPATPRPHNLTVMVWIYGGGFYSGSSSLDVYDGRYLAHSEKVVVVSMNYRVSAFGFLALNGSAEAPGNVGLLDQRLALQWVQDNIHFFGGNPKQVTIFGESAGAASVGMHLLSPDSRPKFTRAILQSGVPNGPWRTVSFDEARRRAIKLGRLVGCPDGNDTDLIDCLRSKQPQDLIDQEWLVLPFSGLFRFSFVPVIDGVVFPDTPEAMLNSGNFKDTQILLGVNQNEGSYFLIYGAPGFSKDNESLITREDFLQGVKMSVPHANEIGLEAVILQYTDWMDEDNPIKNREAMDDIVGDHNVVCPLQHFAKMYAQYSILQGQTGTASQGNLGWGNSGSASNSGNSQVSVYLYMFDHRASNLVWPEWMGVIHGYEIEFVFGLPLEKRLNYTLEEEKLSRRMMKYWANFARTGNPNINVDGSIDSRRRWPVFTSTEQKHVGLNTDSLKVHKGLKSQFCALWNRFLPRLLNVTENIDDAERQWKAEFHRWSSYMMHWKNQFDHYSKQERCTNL

How the values were obtained:
[1] = molecular target: butyrylcholinesterase (BChE, equine serum) (Equus caballus, UniProt P81908); experiment: Ellman's assay, butyrylcholinesterase inhibition; assay type: biochemical
[2] = molecular target: acetylcholinesterase (AChE, electric eel) (Electrophorus electricus, UniProt O42275); conditions: 30 µM

## C[C@H]1[C@H](C)CC[C@]2(C(=O)NCCN3CCCCC3)CC[C@]3(C)C(=CC[C@@H]4[C@@]5(C)CC[C@H](O)C(C)(C)[C@@H]5CC[C@]43C)[C@H]12
[1]; BChE, equine serum
  Type of Inhibition: mixed-type
[1]; BChE, equine serum, Ellman's assay
  Ki′ (uncompetitive inhibition): 7640 ± 220 nM
[1]; c = 30 µM, mean ± SE
  Grade of inhibition in% BChE: 75.72 ± 0.15%
[1]; read-out: Ki (competitive inhibition), BChE, equine serum, Ellman's assay
  Ki: 2370 nM
[2]
  inhibition: 21.7%
